This experiment has as its system hCD20+ B cells. The experiment in a line: B cell depletion in hCD20+ mice, FACS analysis of spleen, blood, lymph node and Peyer's Patches. The format is in vivo. To be noted: intraperitoneal. On the technique in general: A flow cytometer gives signals particle by particle.

Some results are limits rather than exact numbers.

The text below walks through data of patent publication US20060135430A1, “BLy antagonists and uses thereof” (GENENTECH, INC., priority 2003, published 2006).

B1: Anti-CD20 mAb: anti-CD20 monoclonal antibody injected intraperitoneally into hCD20+ mice; the clone is not specified (antibody, V domains shown)
VH: QAYLQQSGAELVRPGASVKMSCKASGYTFTSYNMHWVKQTPRQGLEWIGAIYPGNGDTSYNQKFKGKATLTVDKSSSTAYMQLSSLTSEDSAVYFCARVVYYSNSYWYFDVWGTGTTVTVS
VL: QIVLSQSPAILSASPGEKVTMTCRASSSVSYMHWYQQKPGSSPKPWIYAPSNLASGVPARFSGSGSGTSYSLTISRVEAEDAATYYCQQWSFNPPTFGAGTKLELK
As for B1, the “depletion of mature circulating B cells” value (blood and lymph nodes) is more than 99%. The “effect on B cell populations in the spleen” value (spleen, T2, follicular and marginal zone B cells) is “depletes T2 and follicular B cells, but not marginal zone B cells”.
